As usually defined, the EC50 is the concentration giving half of the maximal effect.

Sequences of proteins named here, by UniProt entry; tags and fusion partners are left off.
UniProt O14842, whole entry: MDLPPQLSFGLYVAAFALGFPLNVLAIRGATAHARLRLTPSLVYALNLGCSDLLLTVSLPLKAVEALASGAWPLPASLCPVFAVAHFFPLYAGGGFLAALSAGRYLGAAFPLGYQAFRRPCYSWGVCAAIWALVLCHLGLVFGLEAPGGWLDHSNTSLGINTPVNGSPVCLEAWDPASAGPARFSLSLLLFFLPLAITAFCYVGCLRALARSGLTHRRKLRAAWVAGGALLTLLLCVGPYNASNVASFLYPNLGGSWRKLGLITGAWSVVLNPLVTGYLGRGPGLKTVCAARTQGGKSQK

This assay has as its target GPR40 (Homo sapiens, UniProt O14842). The assay can be described thus: Cell-based aequorin assay (CHO cells stably expressing GPR40 and aequorin). The note with it: read-out: Aequorin EC50; activation of human GPR40, CHO cells, 0.01% HSA.

The structures appear in SMILES notation.

Consider `COc1ccc(F)c(-c2ccc(COc3cccc(C(CC(=O)O)C4CC4)c3)cc2C2CCCC2C)c1` (single isomer, unassigned), for which the EC50 was 100 to 1000 nM.

For the origin of these results see patent US8030354B2, “Substituted biphenyl GPR40 modulators” (Amgen Inc., priority 2007, dated 2011).
